For data set [1], the system named is PAE. The data set is described as follows: Apoptosis in PAE. The data set is classed as cell-based, porcine. Conditions: PAE cells.
The test system of data set [2] is PAE cells. The data set is described as follows: Growth dose response (IC50) in PAE. The format is cell-based, porcine. The conditions noted are these: read-out: Growth IC50 (M) in PAE.
Data set [3] has as its system PAE cells. The experiment in a line: Fluorescence-release cytotoxicity assay. The conditions noted are these: endothelial cells; less than 10% is considered basal level.
Data set [4] concerns endothelial cells. The data set is described as follows: Primary screening: cell-based growth HTS and tube formation HTS (bioactivity class). The conditions noted are these: HTS at 1 μM final concentration.

Broadly, the IC50 is the concentration that inhibits the measured activity by half. As to “gold(1+); 1-(2,3,4-triaza-5- azanidacyclopenta-1,3-dien-1-yl)-2,3,4- triaza-5-azanidacyclopenta-1,3-diene; triphenylphosphane”, the “Apoptosis PAE (RFU)” value in data set [1] is 0.9062 RFU. Moreover, the IC50 in data set [2] was 3.58e-10 M. Further, the “Cytotoxicity (%)” value in data set [3] was found to be 15.66%. Further, the Bioactivity in data set [4] was 3.

The values are drawn from US9504729B2, “Antiangiogenic small molecules and methods of use” (The United States of America, as represented by the …, priority 2009, dated 2016).
